Laboratory results taken from patent publication US6610883B1, “Compounds having selective activity for retinoid X receptors, and means for modulation of processes mediated by retinoid X receptors” (Ligand Pharmaceuticals, Inc., priority 1992, dated 2003).

Protein sequences, listed by entry. Tags and fused reporters are not part of them.
UniProt P13631, whole entry: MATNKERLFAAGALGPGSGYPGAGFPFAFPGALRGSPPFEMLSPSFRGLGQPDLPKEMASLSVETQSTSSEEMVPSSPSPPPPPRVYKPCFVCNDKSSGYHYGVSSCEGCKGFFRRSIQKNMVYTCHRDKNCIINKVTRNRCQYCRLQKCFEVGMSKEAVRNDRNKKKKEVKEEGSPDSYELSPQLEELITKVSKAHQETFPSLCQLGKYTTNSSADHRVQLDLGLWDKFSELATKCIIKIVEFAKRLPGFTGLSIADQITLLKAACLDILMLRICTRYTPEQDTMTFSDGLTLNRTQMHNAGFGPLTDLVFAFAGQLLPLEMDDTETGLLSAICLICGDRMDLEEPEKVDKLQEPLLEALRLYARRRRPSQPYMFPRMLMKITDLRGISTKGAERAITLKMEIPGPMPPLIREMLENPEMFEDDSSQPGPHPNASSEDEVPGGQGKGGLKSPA
UniProt P10826, whole entry: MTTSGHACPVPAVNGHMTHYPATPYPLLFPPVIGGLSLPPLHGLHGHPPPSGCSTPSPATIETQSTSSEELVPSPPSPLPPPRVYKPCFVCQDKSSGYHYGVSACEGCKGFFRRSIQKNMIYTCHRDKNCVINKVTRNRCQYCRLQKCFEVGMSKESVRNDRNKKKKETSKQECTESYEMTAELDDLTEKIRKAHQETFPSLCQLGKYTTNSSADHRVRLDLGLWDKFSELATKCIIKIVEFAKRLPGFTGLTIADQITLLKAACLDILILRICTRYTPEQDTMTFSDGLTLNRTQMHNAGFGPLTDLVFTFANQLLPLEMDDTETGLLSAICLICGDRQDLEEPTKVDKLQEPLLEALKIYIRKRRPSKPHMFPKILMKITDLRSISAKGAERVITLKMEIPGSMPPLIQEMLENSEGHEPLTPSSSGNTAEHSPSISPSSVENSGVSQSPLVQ
UniProt P10276, whole entry: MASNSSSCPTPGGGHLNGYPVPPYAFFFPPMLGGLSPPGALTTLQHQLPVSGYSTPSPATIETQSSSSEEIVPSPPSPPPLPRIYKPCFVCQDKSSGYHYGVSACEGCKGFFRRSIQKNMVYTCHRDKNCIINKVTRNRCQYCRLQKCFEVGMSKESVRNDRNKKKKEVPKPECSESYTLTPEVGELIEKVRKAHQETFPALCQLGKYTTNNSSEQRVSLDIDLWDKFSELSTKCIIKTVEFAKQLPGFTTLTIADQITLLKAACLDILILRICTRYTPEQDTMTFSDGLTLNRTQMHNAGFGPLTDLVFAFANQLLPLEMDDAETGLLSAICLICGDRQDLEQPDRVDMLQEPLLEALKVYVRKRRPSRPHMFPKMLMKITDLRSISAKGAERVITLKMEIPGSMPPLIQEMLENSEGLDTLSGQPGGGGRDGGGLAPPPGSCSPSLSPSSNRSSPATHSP

How the values were obtained:
[1] = system: ME180, a squamous cell carcinoma; assay: Cell growth of ME180; type: cell-based, human; details: ME180, cell number
[2] = system: RPMI18226, a multiple myeloma; assay: Cell growth of RPMI18226; type: cell-based, human; details: RPMI18226, cell number and growth in semi-solid medium
[3] = molecular target: T1, RXRβ (Mus musculus, UniProt P28704); assay: Co-transfection (cis-trans) assay in CV-1 cells, RXRβ; type: cell-based; details: CV-1, read-out: Efficacy
T1 construct: expressed in transfected cells; host or cells: CV-1 (monkey kidney)
T1 sequence (P28704 1-520): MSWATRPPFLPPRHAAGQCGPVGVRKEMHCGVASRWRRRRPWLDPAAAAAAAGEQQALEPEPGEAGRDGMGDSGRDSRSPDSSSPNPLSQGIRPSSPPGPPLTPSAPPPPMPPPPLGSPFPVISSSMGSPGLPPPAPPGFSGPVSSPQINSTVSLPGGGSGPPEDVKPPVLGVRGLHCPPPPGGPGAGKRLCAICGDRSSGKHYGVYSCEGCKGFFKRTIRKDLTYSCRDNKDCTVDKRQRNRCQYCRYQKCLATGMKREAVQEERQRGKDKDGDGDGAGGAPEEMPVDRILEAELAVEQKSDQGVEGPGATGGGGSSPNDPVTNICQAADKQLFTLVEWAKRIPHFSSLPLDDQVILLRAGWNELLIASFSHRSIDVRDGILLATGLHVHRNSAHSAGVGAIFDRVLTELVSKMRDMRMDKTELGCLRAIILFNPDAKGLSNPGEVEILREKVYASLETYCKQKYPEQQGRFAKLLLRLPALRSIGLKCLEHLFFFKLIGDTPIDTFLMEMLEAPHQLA

[4] = molecular target: T2, RXRγ (Mus musculus, UniProt P28705); assay: Co-transfection (cis-trans) assay in CV-1 cells, RXRγ; type: cell-based; details: maximal response relative to all-trans-retinoic acid at 10^−5 M
T2 construct: expressed in transfected cells; host or cells: CV-1 (monkey kidney)
T2 sequence (P28705 1-463): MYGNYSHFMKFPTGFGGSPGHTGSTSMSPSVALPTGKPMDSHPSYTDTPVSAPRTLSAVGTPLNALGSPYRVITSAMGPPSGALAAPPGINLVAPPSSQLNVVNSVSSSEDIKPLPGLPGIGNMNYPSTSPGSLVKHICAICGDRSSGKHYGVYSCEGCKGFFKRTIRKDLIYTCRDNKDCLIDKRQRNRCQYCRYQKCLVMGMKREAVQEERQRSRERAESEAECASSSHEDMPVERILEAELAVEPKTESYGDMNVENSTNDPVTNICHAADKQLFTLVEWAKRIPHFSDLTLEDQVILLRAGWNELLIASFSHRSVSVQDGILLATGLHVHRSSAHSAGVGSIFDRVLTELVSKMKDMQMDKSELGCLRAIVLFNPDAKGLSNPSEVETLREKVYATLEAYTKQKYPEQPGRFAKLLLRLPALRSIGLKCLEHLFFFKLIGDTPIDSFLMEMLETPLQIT

[5] = molecular target: RARγ (Homo sapiens, UniProt P13631); assay: Co-transfection (cis-trans) assay in CV-1 cells, RARγ; type: cell-based; set-up: expressed in transfected cells; host or cells: CV-1 (monkey kidney); details: maximal response relative to all-trans-retinoic acid at 10^−5 M
[6] = molecular target: RARβ (Homo sapiens, UniProt P10826); assay: Co-transfection (cis-trans) assay in CV-1 cells, RARβ; type: cell-based; set-up: expressed in transfected cells; host or cells: CV-1 (monkey kidney); details: maximal response relative to all-trans-retinoic acid at 10^−5 M
[7] = molecular target: RARα (Homo sapiens, UniProt P10276); assay: Co-transfection (cis-trans) assay in CV-1 cells, RARα; type: cell-based; set-up: expressed in transfected cells; host or cells: CV-1 (monkey kidney); details: maximal response relative to all-trans-retinoic acid at 10^−5 M

Compound: Interferonα2b: Interferon, compound which affects cellular proliferation
- Effect on cell growth [1]: inhibit cell growth in a concentration-dependent manner
- Effect on cell growth [2]: inhibit cell growth in a concentration-dependent manner

Compound: C=C(c1ccc(C(=O)O)cc1)c1cc2c(cc1C)C(C)(C)CCC2(C)C [3-methyl-TTNEB, 4-[1-(3,5,5,8,8-pentamethyl-5,6,7,8-tetrahydro-2-naphthyl)ethenyl]benzoic acid]
- Emax at 10 µM [3]: 102%

Compound: CC1=C(/C=C/C(C)=C\C=C\C(C)=C\C(=O)O)C(C)(C)CCC1 [9-cis-retinoic acid, reference compound]
- Efficacy [4]: 140%
- Efficacy [5]: 120%
- Efficacy [6]: 82%
- Efficacy [7]: 100%
